Results from US8921306B2, “Nociceptin mimetics” (The University of Queensland, priority 2010, dated 2014).

Chains of the proteins cited; added tags and fusions are not shown. Lines headed by an entry give the natural chain unless they say otherwise; changes in a name come on top.
UniProt P35377: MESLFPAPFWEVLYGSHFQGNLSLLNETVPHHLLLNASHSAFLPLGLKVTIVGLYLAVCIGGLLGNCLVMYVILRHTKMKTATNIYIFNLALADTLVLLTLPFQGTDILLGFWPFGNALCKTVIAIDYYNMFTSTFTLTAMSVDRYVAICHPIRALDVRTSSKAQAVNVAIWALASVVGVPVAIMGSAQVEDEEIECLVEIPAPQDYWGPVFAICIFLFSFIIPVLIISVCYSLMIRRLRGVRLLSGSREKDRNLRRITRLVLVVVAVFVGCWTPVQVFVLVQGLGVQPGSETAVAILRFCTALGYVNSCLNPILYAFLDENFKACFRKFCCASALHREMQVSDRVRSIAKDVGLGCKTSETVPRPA

Columns and labels:
ORL-1 receptor = biological target: T1, ORL-1 receptor (Mus musculus, UniProt P35377); assay: Agonist functional activity assessed by ERK phosphorylation (pERK) in Neuro-2a cells; format: cell-based
T1 construct: Neuro-2a cells were a gift from Professor John Mattick's laboratory; endogenous in cells; host or cells: Neuro-2a cells
Method: Neuro-2a cells were a gift from Professor John Mattick's laboratory (Institute of Molecular Bioscience, University of Queensland) and were cultured in Gibco® DMEM (Invitrogen, CA, USA) supplemented with 10% FBS (Invitrogen, CA, USA), GIBCO® Pen/Strep (50 units/mL penicillin and 50 μg/mL streptomycin, Invitrogen, CA, USA) and GIBCO® NEAA (1× concentration, Invitrogen, CA, USA). Cells were split 1:10 every 3 days.
All cells were incubated at 37° C. and 5% CO2. When treated with pertussis toxin (PTX, catalogue number P7208, Sigma-Aldrich, NY, USA), cells were incubated with 500 ng/mL for 15 hours before use. Cells treated with MEK inhibitor PD98059 (catalogue number PHZ1164, Invitrogen, CA, USA) were preincubated with 50 μM for 1 hour before use.
Cells were placed in 12-well plates (NUNC™, NY, USA) and allowed to adhere for 24-36 h. […] For agonist assays, cells were challenged with compounds for 35 minutes and incubated at 37° C. (5% CO2).
Membranes were washed 3×10 minutes with TBE (with 0.1% Tween-20) and incubated with a primary antibody. For pERK, rabbit polyclonal ERK1+2 [pTpY185/187] […] Instead, rabbit IgG Phospho-ERK1 (T202/Y204)/ERK2 (T185/Y187) (1:2000, catalogue number AF1018, R&D Systems, MN, USA) was used. […] After multiple washes, the membranes were developed using ECL Detection Solution (Amersham Biosciences) and visualized using photographic film. Radiography was quantified using ImageJ (ImageI 1.36b, NIH).
pERK and total ERK concentrations were determined using a modified protocol for the AlphaScreen Surefire Assay. The modified protocol used half the volume of reagents recommended in the manufacturers' protocol with 2 μL of cell extract in both pERK and total ERK assays. The ratio of pERK to total ERK was determined using equation 1 and normalized to control. For agonist responses, the controls used were PBS (0%) and 1 μM nociceptin1-17-OH (100%). For antagonist responses, the controls used were PBS (100%) and 100 nM nociceptin1-17-NH2 (100%).
Concentration responses were analyzed using non-linear regression (variable slope) (Prism5, GraphPad Software) and data is presented as either EC50 (for agonists) or IC50 (antagonists).
Helix constrained and unconstrained peptides were pre-screened using the pERK assay at a single concentration.

C57BL/6 mice = assay: Anti-nociceptive activity in mice, hot plate front paw withdrawal latency; format: in vivo
Method: A similar dose has been used before by others for nociceptin (NC, SEQ ID NO:1) itself in similar assays with some activity (EC50=200 pmol).
Mice (C57BL/6; n=45) were brought into the experimental room for at least 30 minutes prior to testing. They were then individually placed on an accredited hot plate heated to 53±0.54° C. and timed until any front paw withdrawal, licking or jumping behaviour was recorded (baseline response). Mice were not left on the hot plate for longer than 30 sec. […] Mice were then individually placed on the hot plate again at time points 1, 5, 15, 30, 45 and 60 min post injection. Each test was video monitored.
In a parallel experiment, agonist of SEQ ID NO:8 was co-administered with the helical antagonist of SEQ ID NO:13, where upon the increased paw withdrawal latency produced by agonist of SEQ ID NO:8 alone was abolished. This confirms that the helix constrained peptide of SEQ ID NO:13 is a potent antagonist of SEQ ID NO:8 in vivo.

[1] = agonist pERK activity, Neuro-2a cells, read-out: EC50
[2] = 200 pmol per front paw, hot plate

Row | SMILES | EC50 (ORL-1 receptor; [1]) [nM] | EC50 (ORL-1 receptor; cells pretreated with 1.5 μM SEQ ID NO:11, read-out: EC50 after pretreatment with ORL-1 antagonist SEQ ID NO:11) [nM] | increase in paw withdrawal latency (C57BL/6 mice; 200 pmol per front paw, after 5 minutes) [%] | duration of anti-nociceptive effect (C57BL/6 mice; [2]) | ED50 (C57BL/6 mice; anti-nociceptive effect, intraplantar into front paws, hot plate 53° C., C57BL/6 mice) [pmol] | ED100 (C57BL/6 mice; anti-nociceptive effect, intraplantar, hot plate) [pmol] | log EC50 (ORL-1 receptor; agonist pERK activity, printed as log EC50 with negative sign) | improvement in agonist potency (fold) (ORL-1 receptor; relative to unmodified or unconstrained analogue)
1 | C[C@@H](O)[C@H](NC(=O)[C@H](Cc1ccc(F)cc1)NC(=O)CNC(=O)CNC(=O)[C@@H](N)Cc1ccccc1)C(=O)NCC(=O)N[C@H]1CCCCNC(=O)C[C@@H](C(=O)N[C@@H](CCCNC(=N)N)C(=O)N[C@@H](CCCCN)C(=O)N[C@H]2CCCCNC(=O)C[C@@H](C(N)=O)NC(=O)[C@H](CCC(N)=O)NC(=O)[C@H](CC(N)=O)NC(=O)[C@H](CCCCN)NC2=O)NC(=O)[C@H](CO)NC(=O)[C@H](CCCCN)NC(=O)[C@H](CCCNC(=N)N)NC1=O [SEQ ID NO:8, H-FGGF(4-F)TG[KRKSD]RK[KKNQD]-NH2] | 0.04 | 1 | ~100 | greater than 45 min | 70 | 200 | – | –
2 | CC(C)C[C@H](NC(=O)[C@H](CCCCN)NC(=O)[C@H](CCCNC(=N)N)NC(=O)[C@H](C)NC(=O)[C@H](CO)NC(=O)[C@H](CCCCN)NC(=O)[C@H](CCCNC(=N)N)NC(=O)[C@H](C)NC(=O)CNC(=O)[C@@H](NC(=O)[C@H](Cc1ccc(F)cc1)NC(=O)CNC(=O)CNC(=O)[C@@H](N)Cc1ccccc1)[C@@H](C)O)C(=O)N[C@@H](CCCCN)C(=O)N[C@@H](CC(N)=O)C(=O)N[C@@H](CCC(N)=O)C(N)=O [SEQ ID NO:3] | 0.36 | – | – | < 15 min | – | – | −9.44±0.12 | 30

Where two headings read alike, the source gives them in different places.
